# Results as given in the supplement of paper PMC6522484.
# ± gives the standard deviation of the averaged measurements. For some assays here: Most of the highest values are listed elsewhere, so they are rarer here than in the full data. For some assays here: Most of the lowest values are listed elsewhere, so they are rarer here than in the full data.
# Legend:
# DLD1 [1] = experiment: cell viability (CellTiter-Glo) relative to plate median (fraction of plate median); higher = more viable cells; conditions: 5 µM; treatment time 24 h; reporter: 7TFP
# Summary of the method: (§1)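 Signals from firefly luciferase or CellTiterGlo readouts were normalised well by well to the plate median using webcellHTS2, additively and with no log transformation. They came from colorectal cancer cell lines stably holding lentiviral TCF/Wnt firefly luciferase reporters (7TFP or TCF4/Wnt), treated with library compounds at a final 5 µM for 24 h. The mean of two independent replicates is given.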
# HCT116 = experiment: as above; conditions: 5 µM; treatment time 24 h; reporter: TCF4/Wnt
# Summary of the method: as §1
# SW480 [2] = experiment: as above; conditions: 5 µM; treatment time 24 h; reporter: 7TFP
# Summary of the method: as §1
# DLD1 [3] = experiment: TCF/Wnt firefly luciferase reporter signal relative to plate median (fraction of plate median); higher = higher Wnt reporter signal; conditions: 5 µM; treatment time 24 h; reporter: 7TFP
# Summary of the method: as §1
# SW480 [4] = experiment: as above; conditions: 5 µM; treatment time 24 h; reporter: 7TFP
# Summary of the method: as §1
structure (smiles),measurement,setting,value
COc1c2ccccc2nc2occc12,cell viability,DLD1 [1],0.938 ± 0.088
same,cell viability,HCT116,0.9605 ± 0.0035
same,cell viability,SW480 [2],1 ± 0.12
same,TCF/Wnt firefly luciferase reporter signal,DLD1 [3],1.04 ± 0.014
same,TCF/Wnt firefly luciferase reporter signal,SW480 [4],1.004 ± 0.0078
